Binding of CDR-mutated scFvs to a peptide of the spike HR2 region

The measurements come from Li et al. 2023 (doi:10.1038/s41467-023-39022-2) through the FLAb antibody collection.

Binding partner: SARS-CoV-2 spike HR2 peptide, sequence PDVDLGDISGINAS.

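The starting antibody came from a phage panning campaign against this peptide. The variants were designed computationally from a first round of random CDR variants and then made and measured. Group labels follow the data file (Ctrl: baseline library sampled from a position-specific scoring matrix, with some repeated check sequences; Rand: our label for a block that the file lists under HC and that is probably the random mutants of the ten best first-round binders; En: ensemble of fine-tuned language models; GP: Gaussian process model; GPLM: also part of the Gaussian process libraries; HC: hill climbing; Gen: genetic algorithm; Gibbs: Gibbs sampling; a sequence that several methods proposed may carry one label only). AlphaSeq pools MATa yeast showing the antibodies with MATalpha yeast showing the peptide. Binding brings cells together so that they mate, and sequencing counts the barcode pairs among the diploids. The ratio of observed to expected reads was calibrated, replicate by replicate, on BCL2-family standards whose Kd was known from biolayer interferometry. There are six technical replicates.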

Each scFv is VH, a 15-residue (Gly4Ser)3 linker, VL, as in the parent Ab-14, and differs from it in the CDRs of the heavy chain only.
VH: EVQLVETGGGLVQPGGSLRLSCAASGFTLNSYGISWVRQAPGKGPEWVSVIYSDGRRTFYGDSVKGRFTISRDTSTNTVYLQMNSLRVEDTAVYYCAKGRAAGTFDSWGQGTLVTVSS
VL: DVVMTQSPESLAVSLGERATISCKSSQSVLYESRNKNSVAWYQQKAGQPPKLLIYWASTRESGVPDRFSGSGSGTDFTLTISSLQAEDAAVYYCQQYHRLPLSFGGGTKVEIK

The parent's heavy chain CDRs are GFTLNSYGIS, VIYSDGRRTFYGDSVK, GRAAGTFDS; each variant's own CDRs replace them letter for letter.
Values are log10 of the apparent Kd in nM; lower means stronger binding.
The mean shown is taken over the replicates in which the pair was detected.
A pair that was not seen in any replicate is written "no signal"; this usually means weak binding, but a binder can also be missed.
Background: pairings of all heavy chain designs with three empty control strains gave a value in 1% of cases (median 2.08, 5th percentile 0.84). Values in that range, when seen in few replicates, are hard to tell from nonspecific mating. For each scFv, signals with the empty controls are counted beside the result.
In the paper, a design with two or fewer of six values counts as a poor binder.
The parent sequence was in this pool as ten entries: three were never detected, three once, and four in most replicates, with averages from 0.34 to 2.37.
Values of this round are not directly comparable with the first-round values of the same sequences.

GFDLNEYGIS / VIYADGRRTAYSDSVK / GEIAGTFIQ [En_HC]: -0.21 (6 of 6 replicates; controls 0 of 18).
GFDLNNYGIS / VIYSDGRRTFYVDSVK / GQAAGTFDS [GPLM_Gibbs]: -0.05 (6 of 6 replicates; controls 0 of 18).
GKSLDEYGIS / VIYADGMRHEYTDSVK / GQFDDGMDL [En_Gibbs]: no signal (0 of 6 replicates; controls 1 of 18).
GFDLNEYGIS / VIYADGRRTAYTDSVK / GHTAGTFFL [En_HC]: -0.05 (6 of 6 replicates; controls 2 of 18).
GFDINEMGIS / VIYADGQRLFYAQEVK / GENTGTFGM [En_Gibbs]: no signal (0 of 6 replicates; controls 0 of 18).
GFELNSYGIS / VIYSDGRRTFYGDSVK / GHAAGTFDN [GP_Gibbs]: 1.67 (2 of 6 replicates; controls 0 of 18).
GFHLNSYGIS / VIYSDGRRTFYADSVK / GREAGTFDA [GPLM_Gibbs]: 0.14 (6 of 6 replicates; controls 0 of 18).
GFDLNEYGIS / VIYADGMRTAYSDNVK / GNVAGTFDM [En_Gen]: 0.27 (6 of 6 replicates; controls 0 of 18).
GFQLNEYGIS / VIYSDGRRTFYGDSVK / GWTAGTFDT [GP_Gibbs]: 0.25 (6 of 6 replicates; controls 0 of 18).
GFDVDEQGIS / VIYADGRRSQYANSVK / GANGGMFFQ [En_Gibbs]: no signal (0 of 6 replicates; controls 0 of 18).
GFEIQEYGIS / VIYADGRRTAYAESVK / GTLAGTLST [En_Gibbs]: -0.17 (6 of 6 replicates; controls 0 of 18).
GFELDEYGIS / VIYADGRRTFYADSVK / GENAGTFLM [En_HC]: 1.08 (6 of 6 replicates; controls 0 of 18).
GFTLNSYGIS / VIYSDGRRTFYSDSVK / GQLAGTFDD [GP_HC]: 0.71 (6 of 6 replicates; controls 0 of 18).
GFDLNSYGIS / VIYSDGRRTFYSDSVK / GKAGGTFDS [GP_HC]: 1.79 (4 of 6 replicates; controls 0 of 18).
GFNLDEYGIS / VIYADGRRTFYADSVK / GEVAGTFDI [En_HC]: -0.39 (6 of 6 replicates; controls 1 of 18).
GFSLNSYGIS / VIYSDGRRTFYSDSVK / GQVAGTFDS [GPLM_Gen]: 1.59 (5 of 6 replicates; controls 0 of 18).
GSNLDEYGIS / VIYADGFRSHYAEKVK / GQQGGFFIK [En_Gibbs]: no signal (0 of 6 replicates; controls 0 of 18).
GFDLNSYGIS / VIYSDGRRTFYGDSVK / GRAAGIFWS [GPLM_HC]: no signal (0 of 6 replicates; controls 0 of 18).
GFTLNSYGIS / VIYSDGRRTFYSDSVK / GAAGGTFDV [GPLM_HC]: 2.03 (2 of 6 replicates; controls 0 of 18).
GFDLESYGIS / VIYADGKRSSVSNSVK / GQLGNAFDM [En_Gibbs]: no signal (0 of 6 replicates; controls 0 of 18).
GFTLNEYGIS / VIYSDGRRTFYSDSVK / GEQAGTFDS [GP_HC]: 0.55 (6 of 6 replicates; controls 0 of 18).
GFDLNEYGIS / VIYADGRRTFYADSVK / GESAGTFDV [En_HC]: -0.40 (6 of 6 replicates; controls 0 of 18).
GFTLNCYGIS / VIYSDGQRTFYGDSVK / GRRAGTFDS [Ctrl]: no signal (0 of 6 replicates; controls 0 of 18).
GFTLNSYGIS / VIYSDGRRTAYGDSVK / GQNALTFDS [Ctrl]: 1.66 (4 of 6 replicates; controls 1 of 18).
GFTLESYGIS / VIYADGRRTFYADSVK / GRAAGTFDS [GPLM_Gen]: -0.30 (6 of 6 replicates; controls 0 of 18).
GETLNDYSIS / VIYSDGRRTFYGDSVK / AREAGTFDS [Ctrl]: no signal (0 of 6 replicates; controls 0 of 18).
GFTLDSYGIS / VIYSDGRRTFYGDSVK / GYLAGTFDS [GP_HC]: 1.80 (5 of 6 replicates; controls 1 of 18).
GFDLDEYGIS / VIYADGKRTAYSDSVK / GNEAGTFDI [En_Gen]: 0.34 (1 of 6 replicates; controls 0 of 18).
GFTLNQYGIS / VIYSDGRRTVYQDSVK / GRAAGFFVS [Rand]: no signal (0 of 6 replicates; controls 0 of 18).
GFTVGSQGIS / VIYSDGKRTFYGDSVK / GRAAGTFDS [Ctrl]: no signal (0 of 6 replicates; controls 0 of 18).
GFSLNSYGIS / VIYSDGRRTFYDDSVK / GQAAGTFDS [GPLM_Gen]: 0.30 (6 of 6 replicates; controls 2 of 18).
GFTLNMYGIS / VIYSDGRRTFYSDSVK / GRWAGTFDS [Ctrl]: 1.49 (6 of 6 replicates; controls 0 of 18).
GFDLNEYGIS / VIYADGMRTYYADSVK / GNVAGTFDT [En_Gen]: -0.31 (6 of 6 replicates; controls 0 of 18).
GFSLQDYGIS / VIYADGVRTAYVNAVK / GKWGATILG [En_Gibbs]: 0.38 (6 of 6 replicates; controls 1 of 18).
GFDLNEYGIS / VIYADGMRTFYIDSVK / GEAAGTFDM [En_HC]: -0.47 (6 of 6 replicates; controls 1 of 18).
GNNLNSYGIS / VIYSDGRRTFYIDSVR / GRAAGTFDS [Ctrl]: no signal (0 of 6 replicates; controls 0 of 18).
GFTLNSYGIS / VIYSDGKRTFYGDQVK / GRNAGTFDS [GP_Gibbs]: 2.06 (6 of 6 replicates; controls 0 of 18).
KFNLNSYGIS / VIYSDGRRTFYIDSVK / GNAAGTFDS [GP_Gen]: 1.48 (1 of 6 replicates; controls 0 of 18).
GFSLNSYGIS / VIYSDGRRTFYGDSVK / GRAAGTFDN [GPLM_Gen]: 1.68 (4 of 6 replicates; controls 0 of 18).

Extract of 6 entries:

With GFELNSYGIS / VIYSDGRRTFYGDSVK / GHAAGTFDN [GP_Gibbs] the result was 1.67 (2 of 6 replicates; controls 0 of 18).
With KFNLNSYGIS / VIYSDGRRTFYIDSVK / GNAAGTFDS [GP_Gen] the result was 1.48 (1 of 6 replicates; controls 0 of 18).
With GFDVDEQGIS / VIYADGRRSQYANSVK / GANGGMFFQ [En_Gibbs] the result was no signal (0 of 6 replicates; controls 0 of 18).
With GFDLNSYGIS / VIYSDGRRTFYGDSVK / GRAAGIFWS [GPLM_HC] the result was no signal (0 of 6 replicates; controls 0 of 18).
With GFTLNQYGIS / VIYSDGRRTVYQDSVK / GRAAGFFVS [Rand] the result was no signal (0 of 6 replicates; controls 0 of 18).
With GFTLNMYGIS / VIYSDGRRTFYSDSVK / GRWAGTFDS [Ctrl] the result was 1.49 (6 of 6 replicates; controls 0 of 18).